# According to PubChem BioAssay AID651550 (National Center for Advancing Translational Sciences (NCATS), 2012):
# Only a part is listed here, and it is no random draw. Some of these compounds have results that are not shown, active ones among them. The source made the active and inactive calls. Rule as the data show it: active = activity change below about -80%; inconclusive = mostly about -51% to -80%; inactive = weaker than that.
# Biological target: RAC-alpha serine/threonine-protein kinase (Homo sapiens) (UniProt P31749)
# Test: HTS Assay for Inhibitors of Akt Phophorylation: Primary Screen
# Conditions: Neuro2A IGF-stimulated pAkt S473 HTRF, 20 min; at 50 µM; hits give low values
# Source text: The serine/threonine protein kinase Akt (protein kinase B) regulates various cellular processes, including cell survival, growth, proliferation, migration and differentiation. It has been well established that Akt is activated through two essential steps involving membrane translocation and phosphorylation. Cytosolic Akt is recruited to the plasma membrane via the interaction between the PH domain and membrane PIP3 produced by phosphoinositide-3 kinase (PI3K) upon growth factor receptor stimulation. The membrane-Akt interaction results in conformational changes of Akt, enabling its activation through phosphorylation at T308 in the kinase domain and at S473 in the C-terminal hydrophobic motif by PDK1 and mTOR-rictor complex (mTORC2), respectively. […]
# 3 uL of Neuro2A cell suspension in DMEM containing 0.5% FBS and […] antibiotics mix was plated in a white solid bottom tissue culture-treated 1536-well plate (Greiner Bio-One, Monroe, NC) at 4,500 cells per well and incubated overnight at 37 deg C. […] The assay plates were incubated for 24 hours at ambient temperature, and the HTRF fluorescence was measured using Envision plate reader (PerkinElmer) with excitation at 330nm, emission at 615nm (Eu(3)-Cryptate donor signal) and 665nm (d2 acceptor signal). The ratio of […] was calculated for each well.
# % is scaled to controls: 0 for no effect and ±100 for the full control effect.
row,Compound,activity change
1,O=C(OC1CN2CCC1CC2)C(CO)(c1ccccc1)c1ccccc1 (configuration not stated),inactive: 16.1%
2,CC(C)N1C(=O)CC2(CCN(CCOC(=O)C(O)(c3ccccc3)c3ccccc3)CC2)C1=O,inactive: 1.76%
